# Results as given in US6849712B1, “Peptides with β1 integrin subunit dependent cell adhesion modulating activity” (Regents of the University of Minnesota, priority 1998, dated 2005).
# Protein sequences, listed by entry. Tags and fused reporters are not part of them. Residues count along the entry.
# UniProt P08648, 895-1049 limits assumed: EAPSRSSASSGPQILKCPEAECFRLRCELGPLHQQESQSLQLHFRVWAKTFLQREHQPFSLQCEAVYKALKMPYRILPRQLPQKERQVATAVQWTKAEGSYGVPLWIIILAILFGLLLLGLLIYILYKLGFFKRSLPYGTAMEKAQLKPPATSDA
# UniProt P08648, 42-894 limits assumed: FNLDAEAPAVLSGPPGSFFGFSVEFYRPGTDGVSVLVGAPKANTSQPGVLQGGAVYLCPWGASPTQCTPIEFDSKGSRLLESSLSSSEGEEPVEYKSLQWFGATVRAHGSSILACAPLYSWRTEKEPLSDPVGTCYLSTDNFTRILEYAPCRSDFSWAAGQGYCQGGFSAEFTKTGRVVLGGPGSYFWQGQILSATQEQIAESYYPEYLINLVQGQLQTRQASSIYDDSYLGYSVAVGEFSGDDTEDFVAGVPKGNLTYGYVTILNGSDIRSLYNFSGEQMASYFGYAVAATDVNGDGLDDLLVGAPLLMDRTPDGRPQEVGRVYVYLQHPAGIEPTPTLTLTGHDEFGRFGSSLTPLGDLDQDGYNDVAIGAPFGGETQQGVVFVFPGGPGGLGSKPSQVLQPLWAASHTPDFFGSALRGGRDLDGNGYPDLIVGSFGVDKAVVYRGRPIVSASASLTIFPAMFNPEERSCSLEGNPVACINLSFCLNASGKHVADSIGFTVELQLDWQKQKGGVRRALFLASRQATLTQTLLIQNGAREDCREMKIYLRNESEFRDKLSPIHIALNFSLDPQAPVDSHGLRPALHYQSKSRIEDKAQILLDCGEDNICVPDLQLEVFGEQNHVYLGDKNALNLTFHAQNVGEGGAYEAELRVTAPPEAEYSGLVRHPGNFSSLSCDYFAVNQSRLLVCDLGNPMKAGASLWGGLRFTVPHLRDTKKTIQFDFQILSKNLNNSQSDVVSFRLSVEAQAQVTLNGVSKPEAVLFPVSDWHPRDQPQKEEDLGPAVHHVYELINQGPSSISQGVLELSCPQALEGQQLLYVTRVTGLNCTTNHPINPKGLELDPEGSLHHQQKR
# UniProt P13612, 34-1032: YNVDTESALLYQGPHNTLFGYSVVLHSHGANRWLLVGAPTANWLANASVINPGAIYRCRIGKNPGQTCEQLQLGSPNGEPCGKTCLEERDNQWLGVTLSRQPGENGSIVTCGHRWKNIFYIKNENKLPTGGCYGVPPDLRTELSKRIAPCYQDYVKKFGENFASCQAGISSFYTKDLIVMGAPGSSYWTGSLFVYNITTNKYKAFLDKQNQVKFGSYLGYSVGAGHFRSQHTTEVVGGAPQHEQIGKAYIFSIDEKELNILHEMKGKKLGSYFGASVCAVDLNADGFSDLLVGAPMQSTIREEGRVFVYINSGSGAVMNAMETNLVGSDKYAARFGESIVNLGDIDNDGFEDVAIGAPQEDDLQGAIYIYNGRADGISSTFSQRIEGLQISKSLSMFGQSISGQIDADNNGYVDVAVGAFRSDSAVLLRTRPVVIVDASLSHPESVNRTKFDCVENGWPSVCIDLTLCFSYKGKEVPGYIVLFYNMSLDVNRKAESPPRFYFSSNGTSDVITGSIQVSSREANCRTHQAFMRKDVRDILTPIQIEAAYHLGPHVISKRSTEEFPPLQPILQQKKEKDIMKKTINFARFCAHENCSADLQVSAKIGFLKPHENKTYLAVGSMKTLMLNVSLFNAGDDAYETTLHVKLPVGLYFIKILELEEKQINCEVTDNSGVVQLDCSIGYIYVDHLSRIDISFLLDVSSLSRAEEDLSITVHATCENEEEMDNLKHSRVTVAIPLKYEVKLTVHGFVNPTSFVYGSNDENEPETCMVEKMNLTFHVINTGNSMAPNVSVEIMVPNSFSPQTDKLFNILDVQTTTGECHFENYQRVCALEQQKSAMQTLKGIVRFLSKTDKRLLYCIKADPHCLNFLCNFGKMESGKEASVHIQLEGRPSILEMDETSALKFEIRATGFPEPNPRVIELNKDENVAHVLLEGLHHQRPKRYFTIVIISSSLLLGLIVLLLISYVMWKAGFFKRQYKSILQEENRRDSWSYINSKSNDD
# Legend:
# α5β1 integrin = biological target: T1, α5β1 integrin (Homo sapiens, UniProt P05556+P08648); test: Inhibition of α5β1 integrin dependent Mn+2 stimulated adhesion of K562 cells to fibronectin (FN); assay type: cell-based
# T1 construct: erythroleukemic cell line K562, which expresses α5β1 but not α4β1 integrin; endogenous in cells; host or cells: K562 cells
# Experimental: The cell adhesion assay was carried out as described above. […] Each data point represents the mean of triplicate determinations and the error bars represent the standard deviation of the mean. The solid black line represents adhesion to the negative control substrate, BSA.
# α4β1 integrin = α4β1 integrin (Homo sapiens, UniProt P05556+P13612); test: Inhibition of α4β1 dependent adhesion of 8A2 stimulated Ramos cells to IIICS-GST; assay type: cell-based; parameters: endogenous in cells; host or cells: Ramos cells; details: Ramos cells activated with mAb 8A2, preincubated with peptide, result in words
# Source text: IIICS-GST is recombinantly produced fusion protein which contains a fragment from the type III CS region (“IIICS”) of plasma fibronectin fused to glutathione-S-transferase (“GST”). The fibronectin fragment corresponds to fibronectin amino acid residues 1961 to 2039 (sequence numbering for fibronectin as designated in U.S. Pat. No. 4,839,464) and includes the […] (SEQ ID NO:46) amino acid sequence (“CS1”; fibronectin residues 1961-1985). […] In the assay, a 96-well plate was coated with the substrate IIICS-GST. Ramos cells stimulated with the β1 activating monoclonal antibody 8A2 (“Ab 8A2”) were preincubated with one of the peptides to be evaluated for their ability to adhere to IIICS-GST. […]
# A 96-well plate was coated in triplicate with […] of IIICS-GST diluted to […] in PBS containing 1 mM CaCl2, MgCl2 (“PBS/cations”) and incubated overnight at 37° C. […] Cells were counted and resuspended at 200,000 cells/ml. […]
# The blocking solution was removed from the 96-well plate and the cell/peptide mixture is added at 100 μl/well (10,000 cells/well) and incubated for 30 minutes at 37° C. An aliquot of standard cells/peptide (100 μl) was placed at 37° C. for quantitating adhesion. […] The plate fluorescence was read at excitation 485 and emission 530. […] The experimental fluorescence readings were extrapolated from the standard curve to obtain percent adhesion.
compound,measurement,setting,value
"CC[C@H](C)[C@H](NC(=O)[C@@H](N)CCCNC(=N)N)C(=O)N[C@@H](Cc1ccc(O)cc1)C(=O)O [RIY, Arg-Ile-Tyr]",inhibition of K562 adhesion to FN at the maximal concentration tested,"α5β1 integrin; 0.84 mM peptide, K562 cells stimulated with 1 mM MnCl2",completely inhibited
same,IC50,"α5β1 integrin; K562 cells stimulated with 1 mM MnCl2, adhesion to FN, read-out: half-maximal inhibitory concentration",~200 µM
same,inhibition of adhesion of 8A2 stimulated Ramos cells to IIICS-GST,α4β1 integrin,comparable on an equimolar basis to that of Y-tagged FN C/H V
